A word on the pIC50: it is −log10 of the IC50, conventionally taken in molar units.

Chains of the proteins cited; added tags and fusions are not shown. Residues count along the entry.
UniProt Q6SZW1, 28-724 limits assumed: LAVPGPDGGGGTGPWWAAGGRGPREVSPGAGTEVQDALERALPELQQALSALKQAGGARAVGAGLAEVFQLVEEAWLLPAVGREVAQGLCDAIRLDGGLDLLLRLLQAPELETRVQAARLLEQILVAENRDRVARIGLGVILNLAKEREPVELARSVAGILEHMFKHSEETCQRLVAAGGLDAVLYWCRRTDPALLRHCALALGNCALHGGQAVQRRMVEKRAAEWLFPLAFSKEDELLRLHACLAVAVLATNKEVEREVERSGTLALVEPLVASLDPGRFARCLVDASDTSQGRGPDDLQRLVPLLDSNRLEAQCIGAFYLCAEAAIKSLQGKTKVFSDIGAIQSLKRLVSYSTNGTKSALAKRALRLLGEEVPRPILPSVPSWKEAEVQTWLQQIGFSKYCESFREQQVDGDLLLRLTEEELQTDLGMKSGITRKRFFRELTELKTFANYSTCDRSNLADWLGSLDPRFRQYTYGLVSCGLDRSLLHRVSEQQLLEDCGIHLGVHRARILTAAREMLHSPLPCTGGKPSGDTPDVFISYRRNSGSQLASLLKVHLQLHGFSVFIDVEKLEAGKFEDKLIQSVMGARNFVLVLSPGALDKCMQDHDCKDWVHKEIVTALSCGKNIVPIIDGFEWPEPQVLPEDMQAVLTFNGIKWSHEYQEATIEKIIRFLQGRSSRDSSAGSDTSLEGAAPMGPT
UniProt P28907, whole entry: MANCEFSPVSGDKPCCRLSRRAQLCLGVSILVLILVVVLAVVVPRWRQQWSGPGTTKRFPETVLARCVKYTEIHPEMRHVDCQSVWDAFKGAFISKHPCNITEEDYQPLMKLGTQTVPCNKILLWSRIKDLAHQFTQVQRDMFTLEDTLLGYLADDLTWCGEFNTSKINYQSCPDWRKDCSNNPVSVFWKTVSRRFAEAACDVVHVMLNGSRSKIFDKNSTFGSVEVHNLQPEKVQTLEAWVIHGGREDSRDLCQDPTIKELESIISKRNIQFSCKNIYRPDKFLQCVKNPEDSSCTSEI

The target in one assay is hSARM1 28–724 (Homo sapiens, UniProt Q6SZW1). Put plainly: PC6 fluorescence assay of SARM1 NADase (hydrolase) activity. To be noted: read-out: IC50 (PC6 assay, SARM1 hydrolase); recombinant hSARM1 28–724 pre-incubated with NMN.
For another assay, the target named is CD38 (Homo sapiens, UniProt P28907). Put plainly: PC6 in vitro assay, enzymatic inhibition of CD38. It is filed as biochemical. To be noted: for pIC50: read-out: IC50 (enzymatic inhibition of CD38).
Assay [1] deals with SARM1 TIR domain (DmrB–TIR). Kind of assay: DmrB–TIR dimerization (AP20187)-induced cell death in 293T cells. To be noted: 24 h after AP20187 addition.

The structures appear in SMILES notation. pIC50: −log10 of the molar value. Some results are limits rather than exact numbers.

Turning to `CP(C)(=O)c1cc(C(=O)NCc2ccc(Cl)cc2)c2[nH]nc(-c3ccncc3)c2c1`, the pIC50 is 7.25 at hSARM1 28–724 and less than 5.00 on CD38. Further, the “prevention of DmrB–TIR-dependent cell death (cell viability)” value in assay [1] is recorded as “preserved cell viability”. With `S=C(NCc1ccc(Cl)cc1)Nc1cnn(-c2ccncc2)c1`, the pIC50 at hSARM1 28–724 was 7.67; at CD38, less than 5.00.

In the case of `COCCOC1CCC(Nc2cc(=O)n(C)c3ccc(-c4cncs4)cc23)CC1` (stereo not drawn), the “inhibitory effect on the enzymatic activity of CD38” value against CD38 (in words) is “potent inhibition”. `O=C(NCc1ccc(Cl)cc1)c1cc(P2(=O)CCCCC2)cc2c(-c3ccncc3)n[nH]c12`: the pIC50 on hSARM1 28–724 was 7.25; on CD38, less than 5.00. In the case of `N#Cc1c(F)cc(CCC(=O)Nc2[nH]nc3c2CCOc2cnccc2-3)cc1F`, at hSARM1 28–724, the pIC50 was 7.47.

The values above are taken from PMC11428815, “Characterization of Novel SARM1 Inhibitors for the Treatment of Chemotherapy-Induced Peripheral Neuropathy” (Biomedicines, 2024).
